{
  "source": "patent US5932483A",
  "about": "“Synthetic peptide and its uses” (Northwestern University, priority 1996, dated 1999)",
  "key": {"[1]": {"assay": "Solubility of CBP2 in aqueous solvents / DMF", "format": "physicochemical", "procedure": "In addition to the purification performed by Biosearch, the peptide was further purified by gel filtration chromatography. […] Due to the high hydrophobic character of the solvent, Sephadex G25 (Pharmacia, Piscataway, N.J.) was used for the chromatography. A column of dimensions 0.7×40 cm was poured and equilibrated with 1% (v/v) DMF in distilled water (dH2 O). A 2 mg/ml sample of CBP2 was prepared in 50% (v/v) DMF, and 1 ml of the sample was loaded on the column and eluted with 1% DMF at a flow rate of 1 ml/15 min. One ml fractions were collected.\nA 1.2 fold increase in peptide purity with a 41% yield of peptide was obtained."}, "[2]": {"test_system": "binding of rabbit Ig-HRP by solid phase Protein A", "assay": "Inhibition of binding of Ig-HRP to solid phase Protein A", "procedure": "Protein A (recombinant Protein A from Repligen, Cambridge, Mass.) diluted to 1 μg/ml in coating buffer (0.1M NaHCO3, pH 9.0) was incubated in the wells of a microtiter plate (100 μl per well) for 2 hours at 37° C. Uncoated surfaces of the wells were blocked by adding 340 μl PBSC (9 mM Na2 HPO4, 1 mM NaH2 PO4, pH 7.2, 154 mM NaCl, 1 mg/ml casein or ovalbumin, and 0.01% thimerosal), incubating the plate 1 hour at 37° C., and then washing the wells 3 times with PBSCT (PBSC plus 0.1% Tween 20 (polyoxyethylene sorbitan monolaurate)). […] OPD substrate buffer (0.8 mg/ml o-phenylenediamine, 0.1M Na2 HPO4, 0.05M sodium citrate, pH 5.5, plus 0.15% (v/v) H2 O2) was then added to the wells (100 μl/well), and the resultant colored product was measured with a Titertek Multiskan plate reader using a 414 nm filter.\nThe wells of a microtiter plate were coated with Protein A as described above in Part A. Ig-HRP diluted 1:5000 in PBS (the dilution determined by the protein A titration experiment of Part A; original Ig-HRP concentration of 3.3 mg/ml) was preincubated with various concentrations of CBP2 for 1 hour at 37° C. before 100 μl of the incubation mixture were added to each well of the microtiter plate. […] OPD substrate buffer was then added (100 μl/well), and the resulting colored product was measured at 414 nm in a Titertek Multiskan plate reader. […]"}, "[3]": {"test_system": "binding of rabbit Ig-HRP to solid phase C1q", "assay": "Inhibition of binding of Ig-HRP to solid phase C1q", "procedure": "C1q (gift of Dr. Lawrence Potempa, Immtech International Inc., Evanston, Ill.) diluted to 10 μg/ml in coating buffer was placed in the wells of a microtiter plate (100 μl/well) and incubated for 2 hours at 25° C. The uncoated surfaces of the wells were blocked by adding 340 μl PBSC and incubating the plate for 1 hour at 25° C., followed by washing 3 times with PBSC. Dilutions of Ig-HRP in C1q buffer (50 mM Tris, pH 7.2, 27 mM NaCl, 1 mM CaCl2, 0.01% (wt/v) Thimerosal) were incubated in the wells (100 μl/well) for 1 hour at 25° C. followed by washing 3 times with C1q buffer. OPD substrate buffer was then added (100 μl/well), and the colored product was measured at 414 nm in a Titertek Multiskan plate reader.\nC1q was coated onto the surface of the wells of a microtiter plate as described in Part C. […] OPD substrate buffer (100 μl/well) was then added and the colored product measured at 414 nm in a Titertek Mutiskan plate reader."}},
  "note": "No end group written: not given here.",
  "data": [
    {"sequence": "LEQGENVFLQATLLC [CBP2, C1q B chain residues 189-200 plus Leu Leu Cys at the carboxyl terminus]", "values": [
      {"measurement": "solubility in aqueous solvents", "setting": "[1]; lyophilized CBP2, required 50% (v/v) DMF to completely dissolve", "value": "not soluble in aqueous solvents"},
      {"measurement": "solubility in 1% (V/V) DMF", "setting": "[1]; purified CBP2", "value": "readily soluble"},
      {"measurement": "fold greater 50% inhibition concentration of CBP2 than solution phase Protein A", "setting": "[2]", "value": 1000, "unit": "fold"},
      {"measurement": "fold difference of 50% inhibition concentration, CBP2 versus liquid phase C1q", "setting": "[3]", "value": 1000, "unit": "fold"}
    ]}
  ]
}
